{"source": "patent US5054434A", "about": "“Suppression of ammonia odors from animal wastes” (W. R. Grace & Co.-Conn., priority 1989, dated 1991)", "origin": "cited, not measured here", "details": "smell of the acid itself; cited from earlier work", "data": [{"substance": "phosphoric acid", "values": [{"measurement": "Smell", "value": "None"}]}]}
